Measured values: patent publication US20060270634A1, “Acetal phosphate-derived LPA mimics, PPARgamma activators, and autotaxin inhibitors” (priority 2005, published 2006)

Target: T1, LPA3 (Homo sapiens, UniProt Q9UBY5)
T1 sequence (Q9UBY5 1-353): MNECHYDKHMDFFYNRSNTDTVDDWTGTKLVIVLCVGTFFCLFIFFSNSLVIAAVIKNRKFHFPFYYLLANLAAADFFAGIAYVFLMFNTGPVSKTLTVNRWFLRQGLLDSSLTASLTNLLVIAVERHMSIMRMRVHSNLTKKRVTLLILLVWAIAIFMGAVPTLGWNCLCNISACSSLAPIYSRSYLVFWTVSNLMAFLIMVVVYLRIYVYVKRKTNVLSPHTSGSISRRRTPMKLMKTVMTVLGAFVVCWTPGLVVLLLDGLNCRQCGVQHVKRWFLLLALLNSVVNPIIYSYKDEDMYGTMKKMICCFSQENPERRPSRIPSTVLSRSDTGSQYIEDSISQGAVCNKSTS
Experiment: Ca2+ transients in RH7777 cells expressing LPA3 (agonist / inhibition of LPA response)
Conditions: Table 5

## CCCCCCCC(=O)OC[C@@H](COP(=O)(O)O)OC(=O)CCCCCCC [Cpd 7a, (2S)-PA 8:0]
read-out: LPA3 (Ki)
  Ki: 119 nM
read-out: LPA3 IC50
  IC50: 207 nM
